Where “and” joins values, the source holds several entries; their conditions need not be identical. Identical values can stand only once.
System: Hyperoartia
Experiment: Binding affinity to fish sperm DNA by scatchard plot analysis

Compound	K
O=c1c2ccc(NC3=NCCN3)cc2[nH]c2cc(NC3=NCCN3)ccc12	26.5 ×10⁴ /M and 17.5 ×10⁴ /M
Cn1c2ccc(NC3=NCCN3)cc2c(=O)c2cc(NC3=NCCN3)ccc21.O=C(O)C(F)(F)F.O=C(O)C(F)(F)F	25 ×10⁴ /M
O=C(O)C(F)(F)F.O=C(O)C(F)(F)F.O=C1c2ccc(NC3=NCCN3)cc2C(=O)c2ccc(NC3=NCCN3)cc21	9.6 ×10⁴ /M
Cl.Cl.O=c1c2cc(NC3=NCCN3)ccc2[nH]c2ccc(NC3=NCCN3)cc12	13.1 ×10⁴ /M
Cl.Cl.O=c1c2ccc(NC3=NCCN3)cc2[nH]c2ccc(NC3=NCCN3)cc12	31.4 ×10⁴ /M
Cn1c2ccc(NC3=NCCN3)cc2c(=O)c2ccc(NC3=NCCN3)cc21.O=C(O)C(F)(F)F.O=C(O)C(F)(F)F	11.9 ×10⁴ /M

Reference: ChEMBL document CHEMBL3414460, “Antiprotozoal activity and DNA binding of dicationic acridones” (J Med Chem, 2015)
